# Conditions: starting concentration 500 μM
substance,measurement,setting,value
chlorite,chlorite still present in each culture,"after six hours, cultures of KR260, KR3557 or both, PYE, 30° C",~0.3 mM
same,rate of chlorite disappearance in the three cultures,KR260 vs KR3557 vs mixed culture,similar
